Earlier results as cited in US20060057109A1 (priority 2002, published 2006).

Conditions: adult patients, CPA administered as a bolus; cited from earlier work

## NP(=O)(O)N(CCCl)CCCl
  half-life: 8 h
